Where two headings read alike, the source gives them in different places.
Tests used:
[1] = system: NMDA receptor; format: binding, rat
[2] = biological target: NMDA receptor (Rattus norvegicus, UniProt P35439+Q00960); assay: biochemical; format: binding; set-up: other: test compound in the absence of spermine; concentration at 50% of maximum stimulation; % Sti; spermine = 100; other: with and without spermine; absence of spermine; % STI; absence
[3] = read-out: IC50, inhibition of spermine-enhanced [3H]MK-801 binding

Row | SMILES | % Inh [1] [%] | IC50 ([1]; read-out: Spermine IC) [µM] | Emax ([2]; read-out: % Sti) [%] | further results
1 | CC[C@H](C)[C@H](NC(=O)[C@H](CC(C)C)NC(=O)[C@H](CCC(=O)O)NC(=O)[C@H](CCC(N)=O)NC(=O)[C@H](CC(N)=O)NC(=O)[C@H](CCC(=O)O)NC(=O)[C@H](CCC(N)=O)NC(=O)[C@H](CC(C)C)NC(=O)[C@H](CC(C(=O)O)C(=O)O)NC(=O)[C@H](CC(C(=O)O)C(=O)O)NC(=O)[C@H](CCC(=O)O)NC(=O)CN)C(=O)N[C@@H](CCCNC(=N)N)C(=O)N[C@@H](CCC(=O)O)C(=O)N[C@@H](CCCCN)C(=O)N[C@@H](CO)C(=O)N[C@@H](CC(N)=O)C(N)=O [Glu7,10,14-Con-G] | 70 | > 5 | 0 | 
2 | CC[C@H](C)[C@H](NC(=O)[C@H](CC(C)C)NC(=O)[C@H](C)NC(=O)[C@H](CCC(N)=O)NC(=O)[C@H](CC(N)=O)NC(=O)[C@H](C)NC(=O)[C@H](CCC(N)=O)NC(=O)[C@H](CC(C)C)NC(=O)[C@H](CC(C(=O)O)C(=O)O)NC(=O)[C@H](CC(C(=O)O)C(=O)O)NC(=O)[C@H](CCC(=O)O)NC(=O)CN)C(=O)N[C@@H](CCCNC(=N)N)C(=O)N[C@@H](C)C(=O)N[C@@H](CCCCN)C(=O)N[C@@H](CO)C(=O)N[C@@H](CC(N)=O)C(N)=O [Ala7,10,14-Con-G] | 100 | 0.5 | 0 | 
3 | CC[C@H](C)[C@H](N)C(=O)N[C@@H](CCCNC(=N)N)C(=O)N[C@@H](CC(C(=O)O)C(=O)O)C(=O)N[C@@H](CCCCN)C(=O)N[C@@H](CO)C(=O)N[C@@H](CC(N)=O)C(N)=O [Con-G(12-17), IRgKSN] |  |  | 20 | 
4 | CC[C@H](C)[C@H](NC(=O)[C@H](CC(C)C)NC(=O)[C@H](CC(C(=O)O)C(=O)O)NC(=O)[C@H](CCC(N)=O)NC(=O)[C@H](CC(N)=O)NC(=O)[C@H](CC(C(=O)O)C(=O)O)NC(=O)[C@H](CCC(N)=O)NC(=O)[C@H](CC(C)C)NC(=O)[C@H](CC(C(=O)O)C(=O)O)NC(=O)[C@H](CC(C(=O)O)C(=O)O)NC(=O)[C@H](CCC(=O)O)NC(=O)CNC(=O)[C@@H](N)Cc1ccccc1)C(=O)N[C@@H](CCCNC(=N)N)C(=O)N[C@@H](CC(C(=O)O)C(=O)O)C(=O)N[C@@H](CCCCN)C(=O)N[C@@H](CO)C(=O)N[C@@H](CC(N)=O)C(N)=O [Phe^o-Con-G, F-GEggLQgNQgLIRgKSN] | 51 | 6.1 | 53 ± 17 | % INH [1]: 51%; IC50 ([1]; read-out: IC50): 6.1 µM; Emax ([2]; read-out: % STI): 53 ± 17%
5 | CC[C@H](C)[C@H](N)C(=O)N[C@@H](CCCNC(=N)N)C(=O)N[C@@H](CC(C(=O)O)C(=O)O)C(=O)N[C@@H](CCCCN)C(N)=O [Con-G(12-15), IRgK] | 0 |  | ~20 | 
6 | CC[C@H](C)[C@H](NC(=O)[C@H](CC(C)C)NC(=O)[C@H](CC(C(=O)O)C(=O)O)NC(=O)[C@H](CCC(N)=O)NC(=O)[C@H](CC(N)=O)NC(=O)[C@H](CC(C(=O)O)C(=O)O)NC(=O)[C@H](CCC(N)=O)NC(=O)[C@H](CC(C)C)NC(=O)[C@H](CC(C(=O)O)C(=O)O)NC(=O)[C@H](CC(C(=O)O)C(=O)O)NC(=O)[C@H](CCC(=O)O)NC(=O)CNC(=O)[C@@H](N)CO)C(=O)N[C@@H](CCCNC(=N)N)C(=O)N[C@@H](CC(C(=O)O)C(=O)O)C(=O)N[C@@H](CCCCN)C(=O)N[C@@H](CO)C(=O)N[C@@H](CC(N)=O)C(N)=O [Ser^o-Con-G, S-GEggLQgNQgLIRgKSN] | 41 | 6.8 | 0 | 
7 | NCCCC[C@H](NC(=O)[C@@H](N)CC(C(=O)O)C(=O)O)C(=O)N[C@@H](CO)C(=O)N[C@@H](CC(N)=O)C(N)=O [Con-G(14-17), gKSN] | 0 |  | 61 ± 1.3 | inhibition of spermine-induced [3H]MK-801 binding [1]: no inhibition; stimulation of [3H]MK-801 binding in the absence of spermine [2]: stimulated
8 | CC[C@H](C)[C@H](NC(=O)[C@H](CC(C)C)NC(=O)[C@H](CC(C(=O)O)C(=O)O)NC(=O)[C@H](CCC(N)=O)NC(=O)[C@H](CC(N)=O)NC(=O)[C@H](CC(C(=O)O)C(=O)O)NC(=O)[C@H](CCC(N)=O)NC(=O)[C@H](CC(C)C)NC(=O)[C@H](CC(C(=O)O)C(=O)O)NC(=O)[C@H](CC(C(=O)O)C(=O)O)NC(=O)[C@H](CCC(=O)O)NC(=O)CNC(=O)[C@H](Cc1ccc(O)cc1)NC(C)=O)C(=O)N[C@@H](CCCNC(=N)N)C(=O)N[C@@H](CC(C(=O)O)C(=O)O)C(=O)N[C@@H](CCCCN)C(=O)N[C@@H](CO)C(=O)N[C@@H](CC(N)=O)C(N)=O [Ac-Tyr^o-Con-G, AcY-GEggLQgNQgLIRgKSN] | 73 | 18.3 | 0 | 
9 | CC[C@H](C)[C@H](NC(=O)[C@H](CC(C)C)NC(=O)[C@H](CC(C(=O)O)C(=O)O)NC(=O)[C@H](CCC(N)=O)NC(=O)[C@H](CC(N)=O)NC(=O)[C@H](CC(C(=O)O)C(=O)O)NC(=O)[C@H](CCC(N)=O)NC(=O)[C@H](CC(C)C)NC(=O)[C@H](CC(C(=O)O)C(=O)O)NC(=O)[C@H](CC(C(=O)O)C(=O)O)NC(=O)[C@H](CCC(=O)O)NC(=O)CN)C(=O)N[C@@H](CCCNC(=N)N)C(=O)N[C@@H](C)C(=O)N[C@@H](CCCCN)C(=O)N[C@@H](CO)C(=O)N[C@@H](CC(N)=O)C(N)=O [Alal4-Con-G, GEggLQgNQgLIRAKSN] | 100 | 0.16 ± 0.03 | 0 | 
10 | CC(C)C[C@H](NC(=O)[C@H](CC(C(=O)O)C(=O)O)NC(=O)[C@H](CC(C(=O)O)C(=O)O)NC(=O)[C@H](CCC(=O)O)NC(=O)CN)C(N)=O [Con-G(1-5), GEggL] | 50 | 7.43 | 0 | 
11 | NCCCC[C@H](N)C(=O)N[C@@H](CO)C(=O)N[C@@H](CC(N)=O)C(N)=O [Con-G(15-17), KSN] | 0 |  | ~20 | 
12 | CC[C@H](C)[C@H](NC(=O)[C@H](CC(C)C)NC(=O)[C@H](CC(C(=O)O)C(=O)O)NC(=O)[C@H](CCC(N)=O)NC(=O)[C@H](CC(N)=O)NC(=O)[C@H](CC(C(=O)O)C(=O)O)NC(=O)[C@H](CCC(N)=O)NC(=O)[C@H](CC(C)C)NC(=O)[C@H](CC(C(=O)O)C(=O)O)NC(=O)[C@H](C)NC(=O)[C@H](CCC(=O)O)NC(=O)CN)C(=O)N[C@@H](CCCNC(=N)N)C(=O)N[C@@H](CC(C(=O)O)C(=O)O)C(=O)N[C@@H](CCCCN)C(=O)N[C@@H](CO)C(=O)N[C@@H](CC(N)=O)C(N)=O [Ala3-Con-G, GEAgLQgNQgLIRgKSN] | 34 ± 9 |  | 0 | inhibition of [3H]MK-801 binding produced by maximally effective spermine [1]: 34%; IC50 [1, 3]: 1.8 ± 0.1 µM
13 | CC[C@H](C)[C@H](NC(=O)[C@H](CC(C)C)NC(=O)[C@H](CC(C(=O)O)C(=O)O)NC(=O)[C@H](CCC(N)=O)NC(=O)[C@H](CC(N)=O)NC(=O)[C@H](CC(C(=O)O)C(=O)O)NC(=O)[C@H](CCC(N)=O)NC(=O)[C@H](CC(C)C)NC(=O)[C@H](CC(C(=O)O)C(=O)O)NC(=O)[C@H](CC(C(=O)O)C(=O)O)NC(=O)[C@H](CCC(=O)O)NC(=O)CNC(=O)[C@@H](N)Cc1ccc(OC(C)(C)C)cc1)C(=O)N[C@@H](CCCNC(=N)N)C(=O)N[C@@H](CC(C(=O)O)C(=O)O)C(=O)N[C@@H](CCCCN)C(=O)N[C@@H](CO)C(=O)N[C@@H](CC(N)=O)C(N)=O [tBu-Tyr^o-Con-G, tBu-Y-GEggLQgNQgLIRgKSN] | 29 | 1.5 | 69 | % INH [1]: 29%; IC50 ([1]; read-out: IC50): 1.5 µM; Emax ([2]; read-out: % STI): 69%
14 | CC[C@H](C)[C@H](NC(=O)[C@H](CC(C)C)NC(=O)[C@H](CC(C(=O)O)C(=O)O)NC(=O)[C@H](CCC(N)=O)NC(=O)[C@H](CC(N)=O)NC(=O)[C@H](CC(C(=O)O)C(=O)O)NC(=O)[C@H](CCC(N)=O)NC(=O)[C@H](CC(C)C)NC(=O)[C@H](CC(C(=O)O)C(=O)O)NC(=O)[C@H](CO)NC(=O)[C@H](CCC(=O)O)NC(=O)CN)C(=O)N[C@@H](CCCNC(=N)N)C(=O)N[C@@H](CC(C(=O)O)C(=O)O)C(=O)N[C@@H](CCCCN)C(=O)N[C@@H](CO)C(=O)N[C@@H](CC(N)=O)C(N)=O [Ser3-Con-G, GESgLQgNQgLIRgKSN] | 23 ± 3.6 | 3.6 ± 0.7 | 62 ± 4.9 | % INH [1]: 23 ± 3.6%; IC50 ([1]; read-out: IC50): 3.6 ± 0.7 µM; IC50 [1, 3]: 3.6 ± 0.7 µM; Emax ([2]; read-out: % STI): 62 ± 4.9%
15 | CC[C@H](C)[C@H](NC(=O)[C@H](CC(C)C)NC(=O)[C@H](CC(C(=O)O)C(=O)O)NC(=O)[C@H](CCC(N)=O)NC(=O)[C@H](CC(N)=O)NC(=O)[C@H](CO)NC(=O)[C@H](CCC(N)=O)NC(=O)[C@H](CC(C)C)NC(=O)[C@H](CC(C(=O)O)C(=O)O)NC(=O)[C@H](CC(C(=O)O)C(=O)O)NC(=O)[C@H](CCC(=O)O)NC(=O)CN)C(=O)N[C@@H](CCCNC(=N)N)C(=O)N[C@@H](CC(C(=O)O)C(=O)O)C(=O)N[C@@H](CCCCN)C(=O)N[C@@H](CO)C(=O)N[C@@H](CC(N)=O)C(N)=O [Ser7-Con-G, GEggLQSNQgLIRgKSN] | 100 | 0.25 ± 0.04 | 0 | 
16 | CC[C@H](C)[C@H](NC(=O)[C@H](CC(C)C)NC(=O)[C@H](CC(C(=O)O)C(=O)O)NC(=O)[C@H](CCC(N)=O)NC(=O)[C@H](CC(N)=O)NC(=O)[C@H](Cc1ccc(O)cc1)NC(=O)[C@H](CCC(N)=O)NC(=O)[C@H](CC(C)C)NC(=O)[C@H](CC(C(=O)O)C(=O)O)NC(=O)[C@H](CC(C(=O)O)C(=O)O)NC(=O)[C@H](CCC(=O)O)NC(=O)CN)C(=O)N[C@@H](CCCNC(=N)N)C(=O)N[C@@H](CC(C(=O)O)C(=O)O)C(=O)N[C@@H](CCCCN)C(=O)N[C@@H](CO)C(=O)N[C@@H](CC(N)=O)C(N)=O [Tyr7-Con-G, GEggLQYNQgLIRgKSN] | 100 | 0.5 | 0 | 
17 | CC[C@H](C)[C@H](NC(=O)[C@H](CC(C)C)NC(=O)[C@H](CC(C(=O)O)C(=O)O)NC(=O)[C@H](CCC(N)=O)NC(=O)[C@H](CC(N)=O)NC(=O)[C@H](Cc1ccc(O)c(I)c1)NC(=O)[C@H](CCC(N)=O)NC(=O)[C@H](CC(C)C)NC(=O)[C@H](CC(C(=O)O)C(=O)O)NC(=O)[C@H](CC(C(=O)O)C(=O)O)NC(=O)[C@H](CCC(=O)O)NC(=O)CN)C(=O)N[C@@H](CCCNC(=N)N)C(=O)N[C@@H](CC(C(=O)O)C(=O)O)C(=O)N[C@@H](CCCCN)C(=O)N[C@@H](CO)C(=O)N[C@@H](CC(N)=O)C(N)=O [iodo-Tyr7-Con-G, GEggLQY(I)NQgLIRgKSN] | 100 | 0.5 | 0 | 

Source: US6511963B1 (priority 1992, dated 2003)
